Antibody variant affinities, Ab-95 light chain, assay 2

All variants were tested on one target, the spike HR2 peptide PDVDLGDISGINAS (SARS-CoV-2).

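The parent was found by panning a naive human phage display library on the peptide. In library AAYL52, one, two or three CDR residues were substituted; doubles and triples were drawn at random. The assay is AlphaSeq: two haploid yeast populations carry antibody and antigen on their surface. The frequency of each diploid, read from paired DNA barcodes, reflects how well the two displayed proteins bind. Scores were corrected for input abundance and mapped to Kd with protein pairs of known affinity run in the same pool. Each pool was mated in three replicate cultures.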

Parent scFv Ab-95: VH joined to VL by the linker GGGGSGGGGSGGGGS. Changes lie in the light chain CDRs alone.
VH: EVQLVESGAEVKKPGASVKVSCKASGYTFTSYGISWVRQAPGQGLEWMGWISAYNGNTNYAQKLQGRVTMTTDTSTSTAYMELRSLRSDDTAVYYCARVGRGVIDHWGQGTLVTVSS
VL: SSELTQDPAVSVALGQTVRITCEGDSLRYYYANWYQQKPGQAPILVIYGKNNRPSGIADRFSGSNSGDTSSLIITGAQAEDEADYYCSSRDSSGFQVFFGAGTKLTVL

The parent's light chain CDRs are EGDSLRYYYAN, GKNNRPS, SSRDSSGFQVF; each variant's own CDRs replace them letter for letter. Affinities are written as log10 Kd with Kd in nM; a lower number is a better binder. Where no diploid with the target was found in that replicate, the entry reads "ND": below detection, most likely a poor binder, though not proof of it. Nonspecific signal, from three strains lacking the peptide, appeared in 28% of pairings of library AAYL52, centred on 3.91 (5% of these signals below 2.90); values are not corrected for it. For each scFv, signals with the empty controls are counted beside the result, with their mean in brackets.

CDR-L1 | CDR-L2 | CDR-L3 | log10 Kd (nM) by replicate | empty controls
EGDSLRYYDAN | SKNNRPS | SSRDSSGFLVF | 1.74 / 1.46 / 1.20 | 4 of 9 (4.32)
EGDSLRYYYAN | GKNNRPS | SQRDSSGFQVF | ND / 3.95 / 4.10 | 3 of 9 (3.06)
EGDSLRYYDAN | GKNNRPS | SSRDTSGAQVF | 1.07 / 1.09 / 0.92 | 0 of 9
EGDSLRYYYAN | GKNNIPS | SSRDSSGCQVV | 3.12 / 4.32 / 2.98 | 2 of 9 (4.36)
EGDSLRYYYAN | GKNNDPS | SPRDSAGFQVF | 5.59 / ND / 3.51 | 2 of 9 (3.56)
EGDSLRYYYAN | GWNNRYS | SSLDSSGFQVF | 3.45 / ND / ND | 5 of 9 (3.96)
LGDSSRYYYAN | GLNNRPS | SSRDSSGFQVF | ND / ND / 4.16 | 1 of 9 (2.60)
EGDSLRYYYAN | GFNNRPS | SSRASSGFQVF | 3.37 / 3.20 / ND | 1 of 9 (3.89)
EGDSYRYYYAN | GKNNRPS | SSRASFGFQVF | 4.47 / 4.31 / ND | 5 of 9 (3.88)
EGDSLRYDYAN | GKHLRPS | SSRDSSGFQVF | 2.28 / 2.56 / 1.76 | 5 of 9 (4.52)
EGDSLRYYYSN | GKNNRPS | SERDSRGFQVF | 3.89 / ND / ND | 3 of 9 (3.43)
EQDSLRYYYAN | GKGNRTS | SSRDSSGFQVF | 3.96 / ND / ND | 3 of 9 (3.75)
EQDSLRGYYAN | GKNNRPS | SSRDSSTFQVF | 3.63 / 4.24 / 4.63 | 0 of 9
EGDSLRYYRAN | GKNNQPL | SSRDSSGFQVF | 2.86 / 5.17 / ND | 3 of 9 (3.69)
EGDSLRYYAAN | GKNNRPS | SSRDSSGFQVF | 1.33 / 1.30 / 0.78 | 3 of 9 (4.61)
EGDSLRYYYAN | SKNARPS | SHRDSSGFQVF | 5.51 / 5.64 / ND | 6 of 9 (3.32)
EGDSLRVYYAN | HKNNRPS | FSRDSSGFQVF | 3.74 / ND / ND | 1 of 9 (3.46)
EGDSLRYYYAN | GKNNKPS | SWRHSSGFQVF | 2.17 / 2.18 / 1.77 | 3 of 9 (4.19)
QGDSTRYYYAN | GKNNRPS | SSRDSSGFEVF | 2.55 / 2.85 / 2.68 | 3 of 9 (3.82)
EEDSLRNYYAN | GKNNRPD | SSRDSSGFQVF | 5.03 / 4.46 / 2.92 | 5 of 9 (4.22)
EGDSLRYYYAV | GKNNRPS | HSRQSSGFQVF | ND / ND / ND | 1 of 9 (4.38)
SGQSLRYYYAN | GKNNRPS | SSRDSSGFQGF | 2.40 / 2.24 / 1.98 | 4 of 9 (3.71)
EGLSLRYYYAN | GKNNRPS | SSRDSSGMQVF | 2.65 / 2.64 / 2.83 | 2 of 9 (3.23)
EGDLLRYYYAN | GKNNRPS | PSRDSSGFQVF | 4.12 / ND / 3.95 | 4 of 9 (3.57)
ERDSLRYYYAN | GKNIMPS | SSRDSSGFQVF | ND / 5.83 / 4.58 | 1 of 9 (4.13)
EGDVLRYYYAN | GKNNRPS | PSRDSSGFQVF | ND / ND / 4.30 | 3 of 9 (3.62)
EGDSLRYYEQN | GKNNRPS | SSRDSSRFQVF | ND / ND / ND | 2 of 9 (4.06)
PGDSLRYAYAN | GKNNRPS | SSFDSSGFQVF | ND / ND / ND | 4 of 9 (3.71)
EGDSLIYYYAE | GWNNRPS | SSRDSSGFQVF | 4.35 / 3.91 / ND | 0 of 9
EMDSLRYYYAW | GKNNRPS | SSRDSSGFQVG | 3.09 / ND / ND | 2 of 9 (3.47)
EGDSLRYYYAN | GKNNYPS | SSRDYSGFKVF | 4.08 / ND / ND | 4 of 9 (3.50)
EGDSLRYYYAN | LKNNYPS | SSRDVSGFQVF | ND / ND / ND | 0 of 9
EGDSLRYYYAN | GHANRPN | SSRDSSGFQVF | 2.84 / 2.99 / 2.24 | 1 of 9 (4.06)
EGDSLRYYYAI | GGNNSPS | SSRDSSGFQVF | 3.66 / ND / ND | 3 of 9 (4.43)
EGVSLRYYYAN | GKNNRPM | SFRDSSGFQVF | 3.02 / 5.17 / 4.44 | 4 of 9 (3.66)
EGDSLRYYMAN | GKNNRPS | CSRDSSGFVVF | 3.07 / 2.63 / 2.56 | 2 of 9 (3.72)
EGDSLRYYGAN | GKNNRPS | SSRDSSLFQVF | ND / 2.59 / 3.35 | 0 of 9
EGDSLRYYYFW | GNNNRPS | SSRDSSGFQVF | 3.24 / ND / ND | 5 of 9 (3.76)
EGGSLRYYYAN | GKNNFPS | SSRDSSGFQEF | ND / ND / 2.32 | 2 of 9 (3.23)
EGHSLRYLYAN | GKNNKPS | SSRDSSGFQVF | 1.91 / 1.60 / 1.09 | 3 of 9 (4.11)

Excerpt, the final 5 entries:

CDR-L1 | CDR-L2 | CDR-L3 | log10 Kd (nM) by replicate | empty controls
EGDSLRYYMAN | GKNNRPS | CSRDSSGFVVF | 3.07 / 2.63 / 2.56 | 2 of 9 (3.72)
EGDSLRYYGAN | GKNNRPS | SSRDSSLFQVF | ND / 2.59 / 3.35 | 0 of 9
EGDSLRYYYFW | GNNNRPS | SSRDSSGFQVF | 3.24 / ND / ND | 5 of 9 (3.76)
EGGSLRYYYAN | GKNNFPS | SSRDSSGFQEF | ND / ND / 2.32 | 2 of 9 (3.23)
EGHSLRYLYAN | GKNNKPS | SSRDSSGFQVF | 1.91 / 1.60 / 1.09 | 3 of 9 (4.11)

Reference: Engelhart et al. 2022, doi:10.1038/s41597-022-01779-4. File: FLAb, binding data.